Sampled rows, rich in hits. Any-hit rate of the full collection: about 0.62%.
uPA surface inh: inhibitors of cell surface uPA generation; Potency, µM (doses to about 38.3 µM), most hits filed as inhibitors; hit rate 0.31% among 330,000; cell surface uPA generation assay, qHTS; active = well fitted inhibition curve with a large enough effect; inconclusive = small, poorly fitted or top-dose-only effect; inactive = no such curve, though single readings can be large or run the other way; tested in mouse RAW 264.7 cells; note: nearly all actives have a fitted effect of over 55% in size
PINK1 modulator: PINK1 expression modulation | PINK1 immunofluorescence, high-content cytometry, 24 h | Potency, µM (highest dose often 76.6 µM), usual class: activators | hit rate 0.2% among 410,000 | AID 624263; active = well fitted activation curve with a large enough effect; inconclusive = small, poorly fitted or top-dose-only effect; cell line not stated here; note: nearly all actives have a fitted effect of over 65% in size
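Stable cell line treated 24 h with compounds at 5 concentrations (CCCP controls), then fixed and immunostained for PINK1 plus nuclear and cell stains; PINK1 immunofluorescence quantified by laser-scanning microplate cytometry.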
miR-21 reporter: miR-21 reporter, rising signal. 340,000 tested, under 10 active. Potency, µM (highest dose often 38.3 µM). HeLa miR-21 FLuc reporter, luciferase, 48 h. AID 2288; active = well fitted rising curve with a large enough effect; inconclusive = small, poorly fitted or top-dose-only effect; inactive = no such curve, though single readings can be large or run the other way;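 further: miR-21 action dims this reporter so a rising signal means less miR-21 action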
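Luminescence from a firefly luciferase reporter carrying a miR-21 binding site downstream, stably expressed under a CMV promoter in HeLa cells that make miR-21 endogenously, reports miRNA modulation after 48 h compound exposure up to approximately 40uM final.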
IL-2 act: activators of IL-2 | IL-2 activation reporter assay, cell-based qHTS; stimulated with anti-CD3/CD4/CD28 beads; in transgenic mouse T cells | hit rate 0.065% among 360,000 | AID 652025 | activation, % (series mostly up to about 46 µM); in the data active = activation above about 50%; inconclusive = mostly about 30% to 49%
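First, unstimulated transgenic mouse T cells were exposed to compound for 60 min. Next, anti-CD3/anti-CD4-coated beads with anti-CD28 were added. Finally, after 18 h at 37 degrees C, EGFP and DsRed were imaged.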
p53 reactivator: re-activators of mutant p53; AID 504706; hit rate 0.063% among 320,000; H1299 p53-A138V BP100-luciferase reporter, luminescence, 24 h; Potency, µM (titrated, usually from 92.2 µM), most hits filed as activators; note: nearly all actives have a fitted effect of over 45% in size
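p53-null H1299 cells stably carrying temperature-sensitive p53-A138V and a BP100-luciferase reporter were pinned with compounds (4-point, 1:5 series) and held 24 hrs at 37 deg C. Luminescence was read 10 min after detection reagent.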
Epigenetic reg: epigenetic control regulation, reporter derepression; murine LDR cells, GFP reporter derepression, 30 h; Potency, µM (highest dose often 53.9 µM), hits mostly activators; hit rate 0.2% among 280,000; note: nearly all actives have a fitted effect of over 60% in size
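Murine LDR cells carrying a silenced, genomically integrated CMV-driven GFP reporter were exposed to compound for 30 hours at 37 C. After PBS washes, GFP-positive cells (20–120 um objects) were counted by laser-scanning microplate cytometry.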
Large screens that a line does not name were inactive. Unless noted, calls come from the whole dose curve; as a rule, active = well fitted curve in the direction sought with a large enough effect; inconclusive = small, poorly fitted or top-dose-only effect, or another doubt; inactive = no such curve, though single readings can be large; an effect the other way counts as inactive or inconclusive.

COc1ccc(-c2[nH]n(-c3ccc([N+](=O)[O-])cc3)c(=O)c2C=NCCN2CCNCC2)cc1	none (no result: uPA surface inh, PINK1 modulator, IL-2 act)
CCC1C(=O)NCCN1Cc1ccc2c(c1)CN(Cc1ccc(OC)c(OC)c1)CCO2 (stereo not drawn)	none (no result: uPA surface inh, miR-21 reporter, IL-2 act, p53 reactivator, Epigenetic reg)
Cc1cc(=O)c2c(O)c3c(O)cc(=O)c4c3c3c(cc(O)c1c23)C(C)(C)C=4O	Epigenetic reg 15.8µM (no result: uPA surface inh, PINK1 modulator, miR-21 reporter, IL-2 act, p53 reactivator)
COc1cc(/C=C2\SC(=O)N(CCNC(=O)c3sc4cc(F)ccc4c3Cl)C2=O)cc(OC)c1OC	Epigenetic reg 17.8µM
COc1ccccc1CCNc1ncnc2sc(C(=O)N3CCCC3)c(C)c12	none (no result: uPA surface inh, miR-21 reporter, IL-2 act, p53 reactivator, Epigenetic reg)
CN1/C(=C\C=C2/C(=O)Oc3ccccc3C2=O)C(C)(C)c2ccccc21	PINK1 modulator 12.6µM, IL-2 act 80.4, Epigenetic reg 14.1µM
CCOC(=O)Cn1c(=NC(=O)C2COc3ccccc3O2)sc2cc(S(N)(=O)=O)ccc21 (stereo not drawn)	none
CCOC(=O)Cn1c(=NC(=O)c2ccc([N+](=O)[O-])s2)sc2ccccc21	PINK1 modulator 25.1µM, Epigenetic reg inconclusive
COC(=O)Cn1cc(/C=C/c2cc[n+](C)cc2)c2ccccc21	none (no result: p53 reactivator, Epigenetic reg)
COC(=O)Cn1c(C)c(/C=C/c2cc[n+](C)cc2)c2ccccc21	IL-2 act 222.4 (no result: Epigenetic reg)
CCn1nnnc1SCC(=O)Nc1ccc2c(c1)OCCO2	p53 reactivator 10µM
COCCCn1nnnc1SCC(=O)Nc1ccc2c(c1)OCCO2	none
COCC1CCCN(Cc2ccc3c(c2)CN(C(=O)c2ccc(OC)nc2OC)CCO3)C1 (stereo not drawn)	none (no result: uPA surface inh, miR-21 reporter, IL-2 act, p53 reactivator, Epigenetic reg)
C/C(=N/N=C(\C)c1ccccc1O)c1ccccc1O	PINK1 modulator 31.6µM, p53 reactivator inconclusive (no result: Epigenetic reg)
CCC1CN(CCNC(=O)c2cc3ccccc3oc2=O)Cc2cc(OC)ccc2O1 (stereo not drawn)	none (no result: uPA surface inh, miR-21 reporter, IL-2 act, p53 reactivator, Epigenetic reg)
Cc1cccc(NC(=O)CSc2nc(-c3cccs3)cc(C(F)(F)F)c2C#N)c1	Epigenetic reg 14.1µM (no result: uPA surface inh, IL-2 act, p53 reactivator)
COc1ccc(-c2cc(C(F)(F)F)c(C#N)c(SCC(=O)Nc3cccc(C)c3)n2)cc1	none (no result: uPA surface inh, IL-2 act, p53 reactivator)
COc1ccc(NC(=O)CSc2nc(-c3cccs3)cc(C(F)(F)F)c2C#N)cc1	Epigenetic reg inconclusive (no result: uPA surface inh, IL-2 act, p53 reactivator)
CCOC(=O)c1ccc(NC(=O)CSc2nc(-c3cccs3)cc(C(F)(F)F)c2C#N)cc1	Epigenetic reg 10µM (no result: uPA surface inh, IL-2 act, p53 reactivator)
COC(=O)C1CCCCN1Cc1ccc2c(c1)CN(C1CCSCC1)CCO2 (stereo not drawn)	none (no result: uPA surface inh, miR-21 reporter, IL-2 act, p53 reactivator, Epigenetic reg)
Cc1nc(C)c(CC(=O)N2CCOc3ccc(CN4CCN(c5ccccn5)CC4)cc3C2)s1	none (no result: uPA surface inh, miR-21 reporter, IL-2 act, p53 reactivator, Epigenetic reg)
CCN(Cc1cccc(S(=O)(=O)O)c1)c1ccc(C(=C2C=CC(=[N+](CC)Cc3cccc(S(=O)(=O)O)c3)C=C2)c2ccc(O)cc2S(=O)(=O)O)cc1	none (no result: uPA surface inh, miR-21 reporter, IL-2 act, p53 reactivator, Epigenetic reg)
Cc1ccc(CNc2ncnc3sc(C(=O)N4CCC(N5CCCC(O)C5)CC4)c(C)c23)o1 (stereo not drawn)	none (no result: uPA surface inh, miR-21 reporter, IL-2 act, p53 reactivator, Epigenetic reg)
COCc1c(C(=O)N2CCN(c3ccccc3)CC2)cnn1-c1nccc(-c2ccco2)n1	none (no result: uPA surface inh, miR-21 reporter, IL-2 act, p53 reactivator, Epigenetic reg)
Cc1ccccc1OCCn1cc(C(=S)N2CCCC2)c2ccccc21	none (no result: miR-21 reporter, p53 reactivator, Epigenetic reg)
CC(=O)c1cn(CCOc2ccccc2C)c2ccccc12	uPA surface inh 5.62µM (no result: Epigenetic reg)
COc1cc2ncnc(N3CCN(C(=O)Nc4ccc(Oc5ccccc5)cc4)CC3)c2cc1OC	none (no result: uPA surface inh, miR-21 reporter, IL-2 act, p53 reactivator, Epigenetic reg)
COC(=O)c1c(NC(=O)CC2Nc3ccccc3NC2=O)sc(C)c1C (stereo not drawn)	PINK1 modulator inconclusive, IL-2 act 184.7
CCOC(=O)c1c(NC(=O)CC2Sc3ccc(C(F)(F)F)cc3NC2=O)sc(C)c1C (stereo not drawn)	none
CCOC(=O)c1c(NC(=O)CC2Nc3ccccc3NC2=O)sc(C)c1C (stereo not drawn)	PINK1 modulator 12.6µM, IL-2 act 157.7, Epigenetic reg inconclusive
O=C(CC1Nc2ccccc2NC1=O)Nc1cc(Cl)cc(Cl)c1 (stereo not drawn)	PINK1 modulator 8.91µM
CCCCOc1ccccc1NC(=O)CC1Nc2ccccc2NC1=O (stereo not drawn)	miR-21 reporter inconclusive

Screening results deposited in PubChem BioAssay by National Center for Advancing Translational Sciences (NCATS).
